The text below walks through data of ChEMBL document CHEMBL2057160, “Experimental and 'in silico' analysis of the effect of pH on HIV-1 protease inhibitor affinity: implications for the charge state of the protein ionogenic groups” (Bioorg Med Chem, 2012).

Experiment [1] concerns the target T1, Protease (Human immunodeficiency virus 1, UniProt Q9YQ12). Nature of the experiment: Binding affinity to Human immunodeficiency virus 1 protease by SPR biosensor interaction analysis at pH 4.1. On the technique in general: Surface plasmon resonance follows binding to a sensor surface in real time, without labels.
Experiment [2] deals with T1, Protease. Nature of the experiment: Binding affinity to Human immunodeficiency virus 1 protease by SPR biosensor interaction analysis at pH 7.4.
Experiment [3] addresses T1, Protease. Nature of the experiment: Binding affinity to Human immunodeficiency virus 1 protease by SPR biosensor interaction analysis at pH 5.1.

By Kd is commonly meant the constant that tells how readily two partners part at equilibrium. A high value points to weaker binding. With `CC(C)(C)NC(=O)[C@@H]1CN(Cc2cccnc2)CCN1C[C@@H](O)C[C@@H](Cc1ccccc1)C(=O)N[C@H]1c2ccccc2C[C@H]1O` [INDINAVIR], the figures for the Kd on Protease [1], on Protease [2] and on Protease [3] were 5.45 nM, 1.2 nM and 1.38 nM, respectively.
With `CC(C)(C)NC(=O)[C@@H]1C[C@@H]2CCCC[C@@H]2CN1C[C@@H](O)[C@H](Cc1ccccc1)NC(=O)[C@H](CC(N)=O)NC(=O)c1ccc2ccccc2n1` [SAQUINAVIR], the Kd was 4.13 nM at Protease [1], 0.577 nM on Protease [2] and 0.637 nM at Protease [3].
